As usually defined, the EC50 is the concentration giving half of the maximal effect. Low readings indicate higher potency in that assay, high ones lower potency in that assay.

In one experiment the target is zebrafish α3β4 nAChR (Danio rerio, UniProt A0A0R4ISQ3+A0A8M1QHJ5). Description: Inhibition of ACh-evoked responses by co-applied mecamylamine in Xenopus oocytes. The experiment is classed as cell-based. The following applies: α3β4, peak current IC50 / net charge IC50.
Experiment [1] addresses zebrafish muscle α1β1bεδ nAChR (Danio rerio, UniProt A2BG85+G1FMP8+Q75XT1+Q98880). Conditions: peak current IC50 / net charge IC50.
Experiment [2] concerns the target T1, zebrafish α2β2 nAChR (Danio rerio, UniProt A0ACM8Q9T8+E7F4S7). The following applies: α2β2, peak current IC50 / net charge IC50.
The target in another experiment is zebrafish α7 nAChR (Danio rerio, UniProt Q800C7). Conditions: α7, peak current IC50 / net charge IC50.
A further experiment has as its target zebrafish α4β2 nAChR (Danio rerio, UniProt E7F4S7+Q0PJT8). Conditions: α4β2, peak current IC50 / net charge IC50.
The target of experiment [3] is T1, zebrafish α2β2 nAChR.
Experiment [4] has as its target T1, zebrafish α2β2 nAChR. Description: cell-based.

As to `CNC1(C)C2CCC(C2)C1(C)C` (stereo not drawn) [mecamylamine], the Ratio on zebrafish α3β4 nAChR worked out at 12; in experiment [1] it was 3.0; on zebrafish α2β2 nAChR [2], 0.9; on zebrafish α7 nAChR it was 2.1; at zebrafish α4β2 nAChR, 22.
For `CN1CCC[C@H]1c1cccnc1` [nicotine], the “Agonist type compared to ACh” value on zebrafish α2β2 nAChR [3] is “partial agonist”. At zebrafish α2β2 nAChR [4], this compound displayed an EC50 of 6 ± 1 µM. Also, the Emax at zebrafish α2β2 nAChR [4] (read-out: Imax) was determined as 30 ± 5%.
As for `CC(=O)OCC[N+](C)(C)C` [ACh, acetylcholine], the EC50 at zebrafish α2β2 nAChR [4] was found to be 40 ± 8 µM.

For the origin of these results see paper PMC3372685 (Biochemical Pharmacology, 2012).
